Test system: MSV
Details: MSV-infected NMRI mice, i.p.

## Nc1ncnc2c1ncn2CCOCP(=O)(O)O [PMEA 4, 9-[2-(phosphonomethoxy)ethyl]adenine, reference compound]
  weight loss of the surviving animals relative to 28-treated mice: at least two times more
